Measured values published in PubChem BioAssay AID528 (NMMLSC, 2006).
Only a part is listed here, and it is no random draw. Records with an inconclusive call do not appear. Calls of active or inactive are those of the source.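 Rule for the calls: active = fluorescent ligand binding to cells raised by more than 40% of the manganese-induced maximum; inconclusive = compound's own fluorescence above 85% of the ligand control signal; inactive = the rest.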

The chains behind the UniProt entries cited, without tags or fusion partners.
UniProt P13612, whole entry, looked up: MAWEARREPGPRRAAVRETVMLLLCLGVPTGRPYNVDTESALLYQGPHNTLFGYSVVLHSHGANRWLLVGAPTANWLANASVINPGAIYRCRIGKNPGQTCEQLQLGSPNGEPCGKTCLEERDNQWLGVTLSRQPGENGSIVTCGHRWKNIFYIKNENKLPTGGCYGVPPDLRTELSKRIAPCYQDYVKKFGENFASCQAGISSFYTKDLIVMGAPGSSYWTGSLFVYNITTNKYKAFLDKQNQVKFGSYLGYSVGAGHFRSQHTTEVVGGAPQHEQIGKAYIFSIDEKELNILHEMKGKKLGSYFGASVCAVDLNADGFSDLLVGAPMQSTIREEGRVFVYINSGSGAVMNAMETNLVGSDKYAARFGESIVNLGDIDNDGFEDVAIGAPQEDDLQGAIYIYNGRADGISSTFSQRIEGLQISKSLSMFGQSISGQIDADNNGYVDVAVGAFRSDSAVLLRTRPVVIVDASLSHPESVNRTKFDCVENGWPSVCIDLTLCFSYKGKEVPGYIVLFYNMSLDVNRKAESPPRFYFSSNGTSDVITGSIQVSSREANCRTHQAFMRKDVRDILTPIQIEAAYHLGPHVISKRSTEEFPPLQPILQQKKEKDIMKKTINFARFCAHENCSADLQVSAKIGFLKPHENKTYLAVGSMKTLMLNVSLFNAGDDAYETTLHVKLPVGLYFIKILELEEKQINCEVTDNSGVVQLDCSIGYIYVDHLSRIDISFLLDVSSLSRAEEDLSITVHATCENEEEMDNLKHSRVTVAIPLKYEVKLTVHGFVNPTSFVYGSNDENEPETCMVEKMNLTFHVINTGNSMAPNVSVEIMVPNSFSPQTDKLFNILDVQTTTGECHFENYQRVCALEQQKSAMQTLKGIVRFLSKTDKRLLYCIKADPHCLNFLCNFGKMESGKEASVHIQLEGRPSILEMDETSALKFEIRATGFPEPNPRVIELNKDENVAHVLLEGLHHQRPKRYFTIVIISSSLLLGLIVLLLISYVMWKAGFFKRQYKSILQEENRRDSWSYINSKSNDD

biological target: Integrin alpha-4 (Homo sapiens) (UniProt P13612); experiment: increased LDV-FITC ligand binding on VLA-4 – Jurkat cells, flow cytometry, primary screen (AID 528); settings: active compounds read high, screened at 10 µM (by protocol);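 note: 0% = ligand binding without compound and 100% = manganese-stimulated maximal binding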

Compound	activation
O=P(Nc1nccs1)(c1ccccc1)c1ccccc1	inactive: -2%
COP1(=S)c2c(C)nn(CCC#N)c2N=C(c2ccc(F)cc2)N1C (stereo unspecified)	inactive: 0%
O=C(COc1ccccc1)OC1CN2CCC1CC2 (stereo unspecified)	inactive: 2.5%
Clc1n[nH]nc1-c1nn[nH][15n]1	inactive: -7%
Cc1nn(-c2ccccc2)c2c1P(=O)(N1CCOCC1)N(C)C(c1ccccc1)=N2 (stereo unspecified)	inactive: -4.5%
CCOP1(=S)c2c(C)nn(CCC#N)c2N=C(c2ccccc2F)N1C (stereo unspecified)	inactive: 9%
